{"source": "patent US7887850B2", "about": "“Method for reducing pathogens in the gastrointestinal tract of poultry and other food animals” (Ecolab Inc., priority 2004, dated 2011)", "test_system": "broilers", "conditions": "drinking water"}
{"substance": "sodium chlorite", "values": [{"measurement": "differences in mortality during the experiment", "setting": "broilers 35 days of age, free access, seven day period, sodium chlorite 0-1.2 %, citric acid 0-0.4 % by weight", "value": "No significant (P>0.05) differences"}, {"measurement": "response of daily and 7-day water consumption to graded levels in the water", "setting": "broilers, seven days", "value": "Linear and quadratic responses"}, {"measurement": "concentrations that negatively affected live performance and water intake", "setting": "broilers, seven days, P<0.05", "value": "> 0.06", "unit": "%"}, {"measurement": "concentrations that significantly lowered weight gain and feed consumption", "setting": "broilers, seven days, percent by weight", "value": "above 0.12%"}]}
